In data set [1] the test system is receptor negative PC-3 tumors. The conditions noted are these: mouse, in vivo.
The test system of data set [2] is T877A-AR positive C4-2 tumors. The conditions noted are these: mouse, in vivo.
The conditions of data set [3]: mouse, in vivo.

Regarding ^18F-fluorodeoxyglucose [^18F-FDG], in data set [1], the “PC-3 Tumor” value was 20.78 ± 8.28 % ID/g. The “C4-2 Tumor” value in data set [2] came out at 36.14 ± 8.49 % ID/g. In data set [3], this substance registered a Bone of 38.89 ± 7.72 % ID/g, a Brain of 56.51 ± 15.03 % ID/g, a Heart of 171.45 ± 61.48 % ID/g and an Intestine of 14.57 ± 1.68 % ID/g. In data set [3], the Kidney worked out at 16.05 ± 1.82 % ID/g, the Liver amounted to 11.13 ± 3.34 % ID/g, the Lung was found to be 24.14 ± 5.01 % ID/g and the Muscle is recorded as 29.08 ± 10.07 % ID/g. Also, in data set [3], the Prostate is 227.57 ± 126.41 % ID/g, the Spleen was 17.66 ± 6.52 % ID/g, the Testis is 65.97 ± 12.93 % ID/g and the Urine is 1071.94 ± 275.25 % ID/g. Moreover, in data set [3], the route of metabolism/excretion entry is “excreted predominantly by the kidney”.

Values taken from US20150190534A1, “COMPOUNDS FOR USE AS POSITRON EMISSION IMAGING AGENTS” (UNIVERSITY OF BERN, priority 2014, published 2015).
